Three compounds from ChEMBL document CHEMBL1156118, “Evaluation of substituted 6-arylquinazolin-4-amines as potent and selective inhibitors of cdc2-like kinases (Clk)” (Bioorg Med Chem Lett, 2009) can be followed below.

Protein sequences, listed by entry. Tags and fused reporters are not part of them. Lines headed by an entry give the natural chain unless they say otherwise; changes in a name come on top.
UniProt Q9HAZ1: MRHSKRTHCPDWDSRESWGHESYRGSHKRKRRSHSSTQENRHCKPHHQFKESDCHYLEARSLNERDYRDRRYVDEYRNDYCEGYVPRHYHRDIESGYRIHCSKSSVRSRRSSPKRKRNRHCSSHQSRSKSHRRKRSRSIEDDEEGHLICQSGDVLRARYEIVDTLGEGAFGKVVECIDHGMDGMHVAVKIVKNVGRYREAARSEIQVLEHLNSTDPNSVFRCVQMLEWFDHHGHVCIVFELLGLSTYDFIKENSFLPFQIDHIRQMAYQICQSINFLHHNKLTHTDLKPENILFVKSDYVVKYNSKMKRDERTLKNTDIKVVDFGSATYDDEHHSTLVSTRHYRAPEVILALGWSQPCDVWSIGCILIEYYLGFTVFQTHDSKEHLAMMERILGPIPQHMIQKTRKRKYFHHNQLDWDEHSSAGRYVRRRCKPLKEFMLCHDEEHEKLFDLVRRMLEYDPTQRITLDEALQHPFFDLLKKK

Structures are written as SMILES.

This assay addresses Dual specificity protein kinase CLK4 (Homo sapiens, UniProt Q9HAZ1). The experiment in a line: Inhibition of Clk4.
As for `Cc1cccc(CNc2ncnc3ccc(-c4c(C)noc4C)cc23)c1`, the IC50 was 282 nM. With `c1csc(CNc2ncnc3ccc(-c4ccc5c(c4)OCCO5)cc23)c1`, the IC50 is 141 nM. Consider `Cc1noc(C)c1-c1ccc2ncnc(NCc3cccnc3)c2c1`, for which 891 nM corresponded to half-maximal inhibition (IC50).

The IC50 is the concentration that inhibits the measured activity by half. The low end stands for greater potency in that assay, the high end for weaker potency in that assay.
